# Results: patent publication US9029332B2, “Cross-linked peptides and proteins, methods of making same, and uses thereof” (The Research Foundation for The State University of New York, priority 2010, dated 2015)
# Tested on: HeLa cells
# Test: FACS analysis of cell permeability of fluorescein-conjugated peptides
# Assay type: cell-based
# Conditions: 10 μM fluorescein-conjugated peptide, 2 h, relative to DMSO control
# Procedure: FIG. 6. An example of flow cytometry analysis of HeLa cells after treatment with 10 μM fluorescein-conjugated peptides: (a) Representative histograms; (b) Bar graph showing normalized mean fluorescence.
# FACS Analysis. HeLa Cells were cultured in DMEM medium supplemented with 10% fetal bovine serum in 6-well plate in a 37° C., 5% CO2 incubator to reach confluency of around 70%. The cells were then washed twice with PBS before switching to serum-free DMEM medium. After standing in the incubator for 30 minutes, appropriate amounts of peptides (1 mM in DMSO) were added to the culture plate to obtain a final peptide concentration of 10 μM. Cells were incubated at 37° C. for additional 2 hrs. Then the medium was removed and the cells were washed with PBS (3×) followed by treatment with trypsin to detach the cells. After a brief low-speed centrifugation, the HeLa cells were collected and re-suspended in PBS for the FACS analysis.
sequence,measurement,value
"LTFEHYWAQLTS [PDI, reference compound]",cell penetration,minimal cell penetration
